The entries are a selection whose mix differs from that of the whole data set. Activity calls are given as the source filed them.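 How the source made its calls: active means inhibition above the mean over all tested compounds plus 3 SD (cut at about 30% in these data); inactive means the rest.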
Molecular target: Platelet-activating factor acetylhydrolase 2, cytoplasmic (Homo sapiens) (UniProt Q99487)
Test: inhibition of cytoplasmic PAF acetylhydrolase 2 – biochemical, fluorescence polarization, human, primary screen (AID 492956);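 further: inhibitors block probe labeling of enzyme so polarization drops; 0% = enzyme with DMSO and 100% = wells lacking PAFAH2 protein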
Conditions: recombinant PAFAH2, FP-rhodamine activity probe, at 3.39 µM, active compounds read high

Structure (SMILES)	inhibition
CCC(=O)N(c1ccccc1)C1(COC)CCN(CCc2cccs2)CC1	inactive: -6.85%
CCC(=O)N(c1ccccc1)C1(COC)CCN(CCn2nnn(CC)c2=O)CC1	inactive: -1.81%
